Results from US8741883B2, “Compounds and methods for the diagnosis and treatment of amyloid associated diseases” (The Regents of the University of California—San Diego, priority 2005, dated 2014).

By UniProt entry, the sequences of proteins in these tests, tags left out. Residues count along the entry.
UniProt P05067, 672-713 limits assumed: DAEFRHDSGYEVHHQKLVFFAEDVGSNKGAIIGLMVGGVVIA

Columns and labels:
[1] = molecular target: IgG (clone AMY-33)-A-beta fibril interaction (Homo sapiens, UniProt P05067); experiment: ELISA-based inhibition of anti-A-beta IgG (clone AMY-33) binding to A-beta fibrils; conditions: same conditions as clone 6E10 assay
[2] = molecular target: binding of the anti-A-beta IgG (clone 6E10) to the A-beta fibrils (Homo sapiens, UniProt P05067); experiment: ELISA-based inhibition of anti-A-beta IgG (clone 6E10) binding to ThT-coated A-beta fibrils

IC50 [1]: 400 nM
IC50 ([2]; read-out: IC50, 0.3 μM solution of A-beta peptide in the control procedure, 0.3 μM A-beta peptide, preincubation control procedure, data not shown): ~1000 nM
IC50 ([2]; read-out: IC50, fibrils incubated with ThT prior to depositing into the wells, A-beta fibrils 1.3 μM preincubated with ThT, clone 6E10): 60000 nM
IC50 ([2]; read-out: IC50 for the binding of the anti-A-beta IgG to the A-beta fibrils, clone 6E10, 0.16 μg mL−1, fibrils deposited from solutions containing 1.3 μM A-beta peptide, then incubated with ThT): 5000 nM
Compound: Cc1ccc2c(c1)sc(-c1ccc(N(C)C)cc1)[n+]2C.[Cl-] [ThT, Thioflavin T]

Read-outs that look alike come from different tables or passages of the source.
